## scFv variants of Ab-95 (light chain) against a SARS-CoV-2 spike peptide

Values reported by Engelhart et al. 2022, doi:10.1038/s41597-022-01779-4 (FLAb copy).

The target is the same throughout: PDVDLGDISGINAS, from the HR2 region of SARS-CoV-2 spike.

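The library (AAYL52) carries one to three amino acid substitutions per variant, with no insertions or deletions. Affinity was read by AlphaSeq, a pooled yeast mating assay with surface-displayed partners. The frequency of each diploid, read from paired DNA barcodes, reflects how well the two displayed proteins bind. Scores were corrected for input abundance and mapped to Kd with protein pairs of known affinity run in the same pool. Each pool was mated in three replicate cultures.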

Each scFv is VH, three GGGGS repeats, VL, as in the parent Ab-95, and differs from it in the CDRs of the light chain only.
VH: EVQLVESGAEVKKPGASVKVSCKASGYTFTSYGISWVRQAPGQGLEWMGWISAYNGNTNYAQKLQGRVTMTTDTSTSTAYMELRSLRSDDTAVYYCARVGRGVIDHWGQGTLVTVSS
VL: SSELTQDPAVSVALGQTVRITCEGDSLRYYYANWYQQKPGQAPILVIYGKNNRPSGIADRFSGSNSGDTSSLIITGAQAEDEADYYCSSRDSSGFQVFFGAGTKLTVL

Substitutions are numbered in sequence along the VL above, starting at 1 (not Kabat). This list gathers variants with a substitution at S55 (VL, numbered from residue 1). The read-out is the apparent dissociation constant on a log10 scale (nM): the lower, the stronger. The mean shown is taken over the replicates in which the pair was detected. A pair that was not seen in that replicate is written "ND"; this usually means weak binding, but a binder can also be missed. The list is sorted by this average, lowest first, undetected variants last. Background: pairings of library AAYL52 with three empty control strains gave a value in 28% of cases (median 3.91, 5th percentile 2.90). Values in that range, when seen in few replicates, are hard to tell from nonspecific mating. The control count says in how many pairings with the empty strains this scFv gave a signal. In this assay the parent's reference entry averaged 2.31; its copy inside this library read 2.25.

Variant Y29K+Y30R+S55G showed 1.91, 2.41, 1.80 (mean 2.04; controls 4 of 9). For S55I+S93I+Q96L, the assay gave 2.24, 1.83, 2.49 (mean 2.18; controls 2 of 9). Variant S26M+S55V+V97F showed 3.07, ND, 1.55 (mean 2.31; controls 0 of 9). Variant S55N+S89C+F98E gave 2.48, 2.55, 2.20 (mean 2.41; controls 1 of 9). Variant E23S+S55L+G94H gave 2.48, 2.51, 2.63 (mean 2.54; controls 2 of 9). With S55H+S93K the result was 3.01, 3.02, 1.89 (mean 2.64; controls 1 of 9). With S55T+G94D+V97W the result was 2.86, 2.14, 2.96 (mean 2.65; controls 3 of 9). For D25K+S55H+G94D, the assay gave 2.63, 2.85, 2.83 (mean 2.77; controls 1 of 9).

Variant E23D+S55Y+S93E gave 2.89, 2.97, 2.96 (mean 2.94; controls 5 of 9). With R28P+S55Y+Q96T the result was 3.13, 2.95, ND (mean 3.04; controls 2 of 9). Variant D25V+S55F+S89E showed 3.66, 3.47, 2.30 (mean 3.14; controls 6 of 9). With K50T+S55C+S93M the result was 3.54, ND, 2.83 (mean 3.19; controls 4 of 9). For S55A+S88V, the assay gave 3.56, 3.12, 3.04 (mean 3.24; controls 2 of 9). With D25Y+R53I+S55Q the result was ND, ND, 3.33 (controls 1 of 9). For Y30F+S55E+S92M, the assay gave 3.48, 3.31, 3.26 (mean 3.35; controls 1 of 9). With S26Y+S55T the result was 3.19, 3.48, 3.78 (mean 3.48; controls 4 of 9).

For E23P+S55G+F95G, the assay gave 3.67, 3.50, ND (mean 3.59; controls 2 of 9). For L27P+S55N+F95H, the assay gave ND, 3.62, ND (controls 5 of 9). With Y29Q+A32F+S55P the result was 3.50, 3.75, ND (mean 3.62; controls 3 of 9). With S55A+S89M+F98R the result was 3.30, 3.85, 4.28 (mean 3.81; controls 1 of 9). Variant L27Y+S55T+F98W gave 3.40, ND, 4.22 (mean 3.81; controls 3 of 9). Variant S26R+S55P+D91S showed 4.36, 3.79, 3.51 (mean 3.89; controls 3 of 9). Variant N51C+S55M+Q96T gave 3.97, ND, ND (controls 1 of 9). Variant Y31L+G49L+S55K gave ND, 4.05, ND (controls 5 of 9).

For N33D+S55W+R90Q, the assay gave ND, ND, 4.19 (controls 5 of 9). Variant N33E+S55C+R90M gave ND, 4.30, ND (controls 1 of 9). Variant D25C+S55V+V97T gave 4.14, 5.63, 4.19 (mean 4.65; controls 6 of 9). Variant R53Y+S55G+D91H showed 4.79, ND, ND (controls 1 of 9). For N52C+S55P+R90S, the assay gave 5.14, ND, ND (controls 4 of 9). With R28Q+N33C+S55Y the result was ND, ND, ND (controls 1 of 9). For N51P+S55A+S89M, the assay gave ND, ND, ND (controls 2 of 9). Variant L27N+S55G+R90N showed ND, ND, ND (controls 1 of 9).

Variant G24W+S55H+R90K gave ND, ND, ND (controls 2 of 9). For E23Q+N33Y+S55I, the assay gave ND, ND, ND (controls 3 of 9).